Source: patent publication US5908868A, “Retinol derivatives useful for enhancing immune response” (priority 1995, dated 1999)

Experiments:
RXR receptor = conditions: (48,49); cited from earlier work
thymocytes = experiment: Proliferation of anti-CD3e activated thymocytes in serum-free medium; assay type: cell-based, BALB/c mouse
Experimental: FIG. 14A: Purified BALB/c thymocytes were activated with immobilized anti-CD3e antibody and cultivated for four days in ITLB medium with or without retinol (3×10^-6 M), 14HRR (6×10^-7 M) (fresh 14HRR was added every 12 hours), human serum (3%) or FCS (10%) at the cellular densities shown. Proliferation was assayed by tritiated thymidine incorporation into cellular DNA. The SDs were below 20%.
FIG. 14B: BALB/c thymocytes (10^6 /ml) were added to microtiter plates coated with titrated amounts of anti-CD3e antibody with […] retinol or without, as indicated. Proliferation was measured in hexaduplicate wells on day 3 by ^3 H thymidine incorporation assay.
FIG. 14C: BALB/c thymocytes (3×10^6 /ml) were activated with anti-CD3e mAb as FIG. 1A. The total number of viable cells was determined by counting trypan blue-excluding cells, and those of blast cells by counting viable large cells in six replicate wells. […]
Purified thymocytes (5×10^5 cells/well) were stimulated by TCR crosslinking with immobilized anti-CD3e antibody (FIG. 15A) or 0.4 μg/ml Con A (FIG. 15B) in serum-free ITLB medium. […] DNA synthesis was measured after 72 hours by tritiated thymidine uptake as described. […]
Thymuses of 3 to 6-week-old BALB/c mice were teased in serum-free RPMI medium supplemented with 1% BSA, 10^-6 M linoleic acid and antibiotics. […] Cell viability was evaluated by trypan blue dye exclusion. […]

Row | Compound | activation of RXR receptor (RXR receptor) | effectiveness relative to all-trans retinol (thymocytes)
1 | CC1=C(/C=C/C(C)=C\C=C\C(C)=C\C(=O)O)C(C)(C)CCC1 [9-cis retinoic acid] | found to activate the RXR receptor | –
2 | CC1=C(/C=C/C(C)=C/C=C/C(C)=C/C(=O)O)C(C)(C)CCC1 [all-trans retinoic acid] | – | completely inactive
